Values quoted from earlier work in publication PMC11241800.

What was measured:
thrombin (Homo sapiens) = thrombin (Homo sapiens) (UniProt P00734)
plasmin (Homo sapiens) = plasmin (Homo sapiens) (UniProt P00747)
MASP-2 (Homo sapiens) = MASP-2 (Homo sapiens) (UniProt O00187)

Ki (thrombin (Homo sapiens)): 61000 nM | Ki (plasmin (Homo sapiens)): 0.09 nM | Ki (MASP-2 (Homo sapiens)): 150 nM
Substance: aprotinin (from UniProt P00974)
